Here are results for one compound from ChEMBL document CHEMBL1136294, “Aryloxazolidinediones: identification of potent orally active PPAR dual alpha/gamma agonists” (Bioorg Med Chem Lett, 2003).

Structures are written as SMILES.

The target of the assay is T1, Peroxisome proliferator-activated receptor delta (Homo sapiens, UniProt Q03181).
T1 sequence (Q03181 whole entry): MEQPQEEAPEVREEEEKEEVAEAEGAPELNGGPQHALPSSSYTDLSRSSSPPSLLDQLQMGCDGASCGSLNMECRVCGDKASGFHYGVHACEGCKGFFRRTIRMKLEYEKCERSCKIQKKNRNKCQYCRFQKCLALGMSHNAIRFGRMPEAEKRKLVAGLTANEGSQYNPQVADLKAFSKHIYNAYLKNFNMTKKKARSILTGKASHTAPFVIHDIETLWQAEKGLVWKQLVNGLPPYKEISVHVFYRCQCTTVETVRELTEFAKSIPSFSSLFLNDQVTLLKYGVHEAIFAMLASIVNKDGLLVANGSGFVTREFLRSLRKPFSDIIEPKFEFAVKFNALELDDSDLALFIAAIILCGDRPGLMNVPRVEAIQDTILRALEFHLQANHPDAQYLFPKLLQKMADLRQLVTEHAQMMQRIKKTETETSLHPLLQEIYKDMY

By IC50 is commonly meant the concentration needed to halve the response being measured. Low readings indicate higher potency, high ones lower potency. The compound `CCCc1cc(Oc2ccccc2)ccc1OCCCOc1cccc(C2SC(=O)NC2=O)c1` (stereo unspecified) registered an IC50 greater than 50 µM.
